# What was measured:
# MAGI3 PDZ1 = assay: holdup assay; format: binding, human; settings: PDZ about 4 μM; two independent experiments
# GRIP1 PDZ1 = assay: holdup assay; format: binding, human; settings: PDZ about 4 μM; two independent experiments
# InaDl PDZ3 = assay: holdup assay; format: binding, human; settings: PDZ about 4 μM; two independent experiments
# MPDZ PDZ6 = assay: holdup assay; format: binding, human; settings: PDZ about 4 μM; two independent experiments
# MPP5 PDZ1 = assay: holdup assay; format: binding, human; settings: PDZ about 4 μM; two independent experiments
# NHERF3 PDZ4 = assay: holdup assay; format: binding, human; settings: PDZ about 4 μM; two independent experiments
# CNKSR3 PDZ1 = assay: holdup assay; format: binding, human; settings: PDZ about 4 μM; sd not given
# human PDZome = assay: holdup assay, PDZome-binding profile
# RGS3 PDZ1 = assay: holdup assay; format: binding, human; settings: PDZ about 4 μM; two independent experiments
# SIPA1 PDZ1 = assay: holdup assay; format: binding, human; settings: PDZ about 4 μM; two independent experiments
# LNX1 PDZ3 = assay: holdup assay; format: binding, human; settings: PDZ about 4 μM; two independent experiments
# PARD3 = assay: holdup assay; format: binding, human
# TJP3 PDZ2 = assay: holdup assay; format: binding, human; settings: PDZ about 4 μM; two independent experiments
# RAPGEF2 PDZ1 = assay: holdup assay; format: binding, human; settings: PDZ about 4 μM; sd not given
# MPP2 PDZ1 = assay: holdup assay; format: binding, human; settings: PDZ about 4 μM; two independent experiments
# GRIP1 PDZ6 = assay: holdup assay; format: binding, human; settings: PDZ about 4 μM; two independent experiments
# PARD3B PDZ2 = assay: holdup assay; format: binding, human; settings: PDZ about 4 μM; two independent experiments
# LMO7 PDZ1 = assay: holdup assay; format: binding, human; settings: PDZ about 4 μM; two independent experiments
# MPDZ PDZ11 = assay: holdup assay; format: binding, human; settings: PDZ about 4 μM; two independent experiments
# RHPN2 PDZ1 = assay: holdup assay; format: binding, human; settings: PDZ about 4 μM; two independent experiments
# RAPGEF6 PDZ1 = assay: holdup assay; format: binding, human; settings: PDZ about 4 μM; two independent experiments
# PDLIM4 PDZ1 = assay: holdup assay; format: binding, human; settings: PDZ about 4 μM; two independent experiments
# SNTG2 PDZ1 = assay: holdup assay; format: binding, human; settings: PDZ about 4 μM; two independent experiments
# NOS1 PDZ1 = assay: holdup assay; format: binding, human; settings: PDZ about 4 μM; two independent experiments
# PSMD9 PDZ1 = assay: holdup assay; format: binding, human; settings: PDZ about 4 μM; two independent experiments
# GIPC2 PDZ1 = assay: holdup assay; format: binding, human; settings: PDZ about 4 μM; two independent experiments
# PDLIM1 PDZ1 = assay: holdup assay; format: binding, human; settings: PDZ about 4 μM; two independent experiments
# PTPN13 PDZ5 = assay: holdup assay; format: binding, human; settings: PDZ about 4 μM; two independent experiments
# DLG3 PDZ2 = assay: holdup assay; format: binding, human; settings: PDZ about 4 μM; two independent experiments
# PDZD9 PDZ1 = assay: holdup assay; format: binding, human; settings: PDZ about 4 μM; two independent experiments
# NHERF4 PDZ4 = assay: holdup assay; format: binding, human; settings: PDZ about 4 μM; two independent experiments
# TJP2 PDZ1 = assay: holdup assay; format: binding, human; settings: PDZ about 4 μM; two independent experiments
# DLG1 PDZ3 = assay: holdup assay; format: binding, human; settings: PDZ about 4 μM; two independent experiments
# MPDZ PDZ1 = assay: holdup assay; format: binding, human; settings: PDZ about 4 μM; two independent experiments
# TIAM2 PDZ1 = assay: holdup assay; format: binding, human; settings: PDZ about 4 μM; two independent experiments
# GRIP2 PDZ5 = assay: holdup assay; format: binding, human; settings: PDZ about 4 μM; two independent experiments
# GORASP2 PDZ1 = assay: holdup assay; format: binding, human; settings: PDZ about 4 μM; two independent experiments
# APBA3 PDZ2 = assay: holdup assay; format: binding, human; settings: PDZ about 4 μM; sd not given
# PDZRN3 PDZ1 = assay: holdup assay; format: binding, human; settings: PDZ about 4 μM; two independent experiments
# DLG1 PDZ1 = assay: holdup assay; format: binding, human; settings: PDZ about 4 μM; two independent experiments
# PICK1 PDZ1 = assay: holdup assay; format: binding, human; settings: PDZ about 4 μM; sd not given
# PARD3B PDZ1 = assay: holdup assay; format: binding, human; settings: PDZ about 4 μM; two independent experiments
# DLG5 PDZ3 = assay: holdup assay; format: binding, human; settings: PDZ about 4 μM; two independent experiments
# SYNJ2BP PDZ1 = assay: holdup assay; format: binding, human; settings: PDZ about 4 μM; two independent experiments
# GRIP1 PDZ5 = assay: holdup assay; format: binding, human; settings: PDZ about 4 μM; two independent experiments
# PARD3B PDZ3 = assay: holdup assay; format: binding, human; settings: PDZ about 4 μM; two independent experiments
# ARHGAP21 PDZ1 = assay: holdup assay; format: binding, human; settings: PDZ about 4 μM; two independent experiments
# NHERF4 PDZ2 = assay: holdup assay; format: binding, human; settings: PDZ about 4 μM; two independent experiments
# PTPN3 = assay: holdup assay; format: binding, human
# MPP4 PDZ1 = assay: holdup assay; format: binding, human; settings: PDZ about 4 μM; two independent experiments
# [1] = PDZ about 4 μM, two independent experiments
# [2] = converted from BI, PDZ typically 4 μM, immobilized peptide 21 μM, listed as PBM peptide from ACE2 protein, read-out: Kd estimated
substance,measurement,setting,value
Biotin-(PEG3)-GFQNTDDVQTSF [ACE2 PBM peptide],BI (binding intensity),MAGI3 PDZ1,0.02
same,BI (binding intensity),GRIP1 PDZ1,-0.01
same,BI (binding intensity),InaDl PDZ3,-0.06
same,BI (binding intensity),MPDZ PDZ6,-0.03
same,BI (binding intensity),MPP5 PDZ1,-0.03
same,BI (binding intensity),NHERF3 PDZ4,-0.06
same,BI (binding intensity),CNKSR3 PDZ1,0.00
same,share of the human PDZome targeted,human PDZome; BI values higher than 0.2,about 5%
same,number of PDZ domains identified as binders,"human PDZome; BI values higher than 0.2, 266 human PDZ domains tested",14 PDZ domains
same,share of the human PDZome targeted,"human PDZome; BI values higher than 0.2, listed as ACE2 PBM",5%
same,BI of the 14 PDZ binders,"human PDZome; two independent experiments, significance threshold 0.2",higher than 0.2
same,BI (binding intensity),RGS3 PDZ1,-0.04
same,BI (binding intensity),SIPA1 PDZ1,-0.04
same,BI (binding intensity),LNX1 PDZ3,-0.07
same,BI (binding intensity),PARD3; [1],0.28
same,Kd,PARD3; [2],51.1 µM
same,BI (binding intensity),TJP3 PDZ2,-0.08
same,BI (binding intensity),RAPGEF2 PDZ1,-0.06
same,BI (binding intensity),MPP2 PDZ1,-0.12
same,BI (binding intensity),GRIP1 PDZ6,-0.27
same,BI (binding intensity),PARD3B PDZ2,-0.07
same,BI (binding intensity),LMO7 PDZ1,0.03
same,BI (binding intensity),MPDZ PDZ11,-0.05
same,BI (binding intensity),RHPN2 PDZ1,-0.08
same,BI (binding intensity),RAPGEF6 PDZ1,-0.06
same,BI (binding intensity),PDLIM4 PDZ1,-0.04
same,BI (binding intensity),SNTG2 PDZ1,-0.05
same,BI (binding intensity),NOS1 PDZ1,-0.02
same,BI (binding intensity),PSMD9 PDZ1,0.02
same,BI (binding intensity),GIPC2 PDZ1,-0.05
same,BI (binding intensity),PDLIM1 PDZ1,0.04
same,BI (binding intensity),PTPN13 PDZ5,-0.05
same,BI (binding intensity),DLG3 PDZ2,-0.27
same,BI (binding intensity),PDZD9 PDZ1,-0.02
same,BI (binding intensity),NHERF4 PDZ4,-0.11
same,BI (binding intensity),TJP2 PDZ1,-0.07
same,BI (binding intensity),DLG1 PDZ3,-0.07
same,BI (binding intensity),MPDZ PDZ1,-0.07
same,BI (binding intensity),TIAM2 PDZ1,-0.12
same,BI (binding intensity),GRIP2 PDZ5,0.00
same,BI (binding intensity),GORASP2 PDZ1,-0.03
same,BI (binding intensity),APBA3 PDZ2,-0.10
same,BI (binding intensity),PDZRN3 PDZ1,-0.01
same,BI (binding intensity),DLG1 PDZ1,-0.14
same,BI (binding intensity),PICK1 PDZ1,-0.03
same,BI (binding intensity),PARD3B PDZ1,0.10
same,BI (binding intensity),DLG5 PDZ3,-0.06
same,BI (binding intensity),SYNJ2BP PDZ1,-0.06
same,BI (binding intensity),GRIP1 PDZ5,-0.07
same,BI (binding intensity),PARD3B PDZ3,-0.01
same,BI (binding intensity),ARHGAP21 PDZ1,0.09
same,BI (binding intensity),NHERF4 PDZ2,-0.06
same,BI (binding intensity),PTPN3; [1],0.54
same,Kd,PTPN3; [2],16.2 µM
same,BI (binding intensity),MPP4 PDZ1,-0.02
